Assay outcomes from PubChem BioAssay.
INS-1E GSIS act = GLuc luminescence reporter in INS-1E cells, primary screen for activators of glucose-dependent secretion of insulin; INS-1E GLuc reporter insulin secretion, 2-3 h; activation, % at 16.6 µM; hit rate 0.61% among 370,000;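 active = lowest replicate activation of at least 40%, so every replicate reaches that level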;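 also: 0% = median of neutral control wells and 100% = median of IBMX positive control wells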
PglD inh = C. jejuni PglD acetyltransferase inhibitors, primary screen, biochemical, DTNB colorimetric, single point. UDP-N-acetylbacillosamine N-acetyltransferase PglD (Campylobacter jejuni). purified PglD enzyme, DTNB colorimetric CoA detection. inhibition, % at 12.5 µM. hit rate 0.098% among 360,000; in the data active = inhibition above about 16%, passing the limit was not always enough; inconclusive = no clear call, values can overlap the other calls
RAD54 inh = inhibitors of human RAD54 branch migration, primary screen, biochemical, fluorescence, single point | DNA repair and recombination protein RAD54-like (Homo sapiens), Q92698 | RAD54 Holliday junction branch migration, FAM/BHQ fluorescence | inhibition, % at 10.4 µM | hit rate 0.14% among 360,000;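 active = mean normalized replicate activity at least 40 and at least half of replicates scoring 40 or more; inconclusive = only one of the two criteria met; inactive = mean below 40 and under half of replicates reaching 40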;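 also: 0% = median of neutral control wells and 100% = median of positive control wells; inhibitors cause a drop in the FAM fluorescence signal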
Casp6 inh = human caspase-6 inhibitors, primary screen, biochemical, VEID-R110 fluorescence, single point, set 2; purified caspase-6, Z-VEID-R110 cleavage fluorescence; inhibition, % at 12.5 µM; hit rate 0.53% among 350,000; P55212;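 active = mean inhibition across replicates at least about 35%, with every replicate also reaching that limit, limit read from the data; inconclusive = only one of the two criteria met; inactive = neither criterion met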;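 also: 0% = median of neutral control wells and 100% = no fluorescence left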
Yeast UUG start = alters start codon recognition fidelity in yeast | S. cerevisiae UUG-firefly luciferase reporter, luminescence/redox ratio | activity score, % at 18.7 µM | hit rate 0.13% among 350,000 | AID 602363;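 active means replicate mean at a twofold rise or more, about +100% in these data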;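 further: firefly luciferase made from a UUG start codon reports start codon fidelity; reporter light over untreated wells divided by growth signal over untreated wells; some hits fall short of that in this replicate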
RAD52 inh = RAD52 DNA annealing inhibitors, primary screen, biochemical, FRET, single point, set 2. recombinant RAD52 DNA annealing, FRET fluorescence. inhibition, % at 18.7 µM. hit rate 0.46% among 360,000;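 active = every replicate showing at least 50% inhibition; inconclusive = mean inhibition at least 50% but not in every replicate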
Rad54 DNA ctr = DNA binding of candidate compounds, dose response, artefact control for RAD54 inhibitor project, biochemical, fluorescence polarization, cherry-pick; Acridine orange-DNA displacement, 20 min; AID 651673, 2012; shares compounds with RAD54 inh; hit rate 8% among 460; AC50, µM (doses to about 35 µM), inactives show top-dose activity change, negative = DNA binding;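 active = signal drop giving an AC50 within twice the top valid tested concentration of each sample, actives reach about 35 µM in these data; inactive = activity opposite to expected, plus the rest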;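 also: polarization loss reports compound binding to salmon sperm DNA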
Numbers without * were called inactive; u = inconclusive; x = no result. A selection: hits, their analogues and other compounds. The true share with any hit is near 1.5%.

SMILES | INS-1E GSIS act | PglD inh | RAD54 inh | Casp6 inh | Yeast UUG start | RAD52 inh | others
N#Cc1c(NC(=O)c2ccc(Br)o2)n(-c2ccccc2)c2nc3ccccc3nc12 | -5 | -8 | -1 | 46* | -9 | -37
CCCCn1c(NC(=O)c2ccccc2)c(C#N)c2nc3ccccc3nc21 | x | -2 | -16 | x | -32 | x
CCC(=O)Nc1c(C#N)c2nc3ccccc3nc2n1-c1ccc(C)cc1 | -32 | x | x | 54* | x | -37
CCOc1cc2c(cc1O)C(=NOC)CC1C2CCC2(C)C(O)CCC12 (configuration not stated) | -16 | x | x | -1 | x | -7
Cc1cccc(OCC(=O)NNC(=O)c2ccc3nc[nH]c3c2)c1 | 9 | -4 | 1 | 41* | -16 | -7
COc1ccc(CCN2CC(C(=O)N3CCN(C(C)=O)CC3)CCC2=O)cc1 (configuration not stated) | 16 | 0 | -12 | 1 | -29 | 0
CNC(=S)NNC(=O)c1ccc(C(C)(C)C)cc1 | x | x | x | -6 | x | -7
CCOc1cc(/C=C2/NC(=S)NC2=O)ccc1OCc1ccc([N+](=O)[O-])cc1 | 58* | -3 | -3 | x | -9 | x
CCc1ccc(O)c(N=Cc2ccccc2O)c1 | 5 | x | x | 0 | x | -15
O=c1[nH][nH]c2c(N=Cc3ccccc3O)ccc(F)c12 | 20 | 2 | -28 | 97* | -11 | -15
C[C@H](CO)N1C[C@H](C)[C@@H](CN(C)C(=O)[C@H]2CCCN2C)OCc2ccccc2-c2ccccc2C1=O | 1 | x | x | x | x | x
CC(=O)c1sc(C(=O)O)c(-c2ccco2)c1-c1ccco1 | x | x | x | 64* | x | -2
CCCCC(=O)N(c1ccc(C)c(C)c1)C1C=CS(=O)(=O)C1 (configuration not stated) | 16 | 1 | 2 | -1 | -13 | 4
CCN(CC)c1ccc(NC(=O)CSc2ccsc2[N+](=O)[O-])c(C)c1 | -38 | x | x | x | x | x
O=C(CSc1ccsc1[N+](=O)[O-])Nc1cc(F)ccc1F | -1 | x | x | 36* | x | -24
COc1cc(N)c2ncccc2c1SC | x | x | x | 5 | x | -17
COc1cc(N)c2ncccc2c1Br | -48 | -1 | -1 | 93* | -25 | -51
CN(C)CCOc1ccc(-c2c(-c3ccsc3)sc3ccccc23)cc1 | 66* | -8 | 11 | -13 | -23 | 13
COc1ccc(-c2sc3ccccc3c2-c2ccc(OCCN(C)C)cc2)cc1 | 25 | 1 | 6 | -2 | -25 | -54
COc1cccc(-c2sc3ccc(OC)cc3c2-c2ccc(OCCN(C)C)cc2)c1 | 132* | 4 | 3 | -3 | -1 | -34

Overlap with the part before: four compounds, followed by the next part.
SMILES | INS-1E GSIS act | PglD inh | RAD54 inh | Casp6 inh | Yeast UUG start | RAD52 inh | others
COc1cc(N)c2ncccc2c1Br | -48 | -1 | -1 | 93* | -25 | -51
CN(C)CCOc1ccc(-c2c(-c3ccsc3)sc3ccccc23)cc1 | 66* | -8 | 11 | -13 | -23 | 13
COc1ccc(-c2sc3ccccc3c2-c2ccc(OCCN(C)C)cc2)cc1 | 25 | 1 | 6 | -2 | -25 | -54
COc1cccc(-c2sc3ccc(OC)cc3c2-c2ccc(OCCN(C)C)cc2)c1 | 132* | 4 | 3 | -3 | -1 | -34
C[C@@H](NC(=O)C[C@@H]1CC[C@@H](NC(=O)CN2CCOCC2)[C@@H](CO)O1)c1ccccc1 | 15 | 1 | 10 | 63* | -18 | 0
C[C@@H](NC(=O)C[C@H]1CC[C@H](NC(=O)CN2CCOCC2)[C@H](CO)O1)c1ccccc1 | -10 | -1 | 2 | 1 | -14 | -9
C[C@H]1CN([C@@H](C)CO)C(=O)c2cccc(NC(=O)c3cnccn3)c2O[C@H]1CN(C)Cc1ccc(Oc2ccccc2)cc1 | -29 | 2 | 0 | -2 | 0 | -13
CCNC(=O)N(C)[C@H]1C[C@@H](c2ccccc2)N(C(C)=O)C[C@H]1CO | -7 | x | x | -2 | x | 0
CN[C@H]1C[C@@H](c2ccccc2)N(C(C)=O)C[C@H]1CO | 42* | -2 | -9 | 0 | -10 | 5
C[C@H](CO)N1C[C@H](C)[C@@H](CN(C)S(=O)(=O)c2ccc(F)cc2)Oc2ccc(NC(=O)Cc3ccccc3)cc2CC1=O | -8 | 1 | -15 | 2 | 9 | 13
Cc1nc2ccc3nc(NC(=O)c4ccc5c(c4)OCCO5)sc3c2s1 | 38 | -7 | -1 | x | -11 | x
Cc1cnc(NC(=O)c2ccc3c(c2)OCCO3)s1 | 2 | 0 | -4 | 36* | -77 | -2
CC1(C)COC(/C=C/c2cccc([N+](=O)[O-])c2)=N1 | -3 | x | x | 46* | x | -14
CC1(C)COC(c2cc([N+](=O)[O-])ccc2Cl)=N1 | 0 | 1 | 1 | x | -18 | x
O=c1[nH]c(/C=C/c2cccc([N+](=O)[O-])c2)c([N+](=O)[O-])c(=O)[nH]1 | x | 2 | 9 | 18 | -14 | -5
O=[N+]([O-])c1cccc(/C=C/c2nc[nH]c2[N+](=O)[O-])c1 | 40* | -4 | 1 | 2 | -16 | -8
COc1ccc(OC2C(=O)N(Cc3ccc(F)cc3)C2c2cc(OC)c(OC)c(OC)c2)cc1 (configuration not stated) | 4 | x | x | x | x | x
COC(=O)c1ccc(C2C(Oc3ccc(OC)cc3)C(=O)N2CCc2ccc(F)cc2)cc1 (configuration not stated) | 113* | x | x | x | x | x
CC1CC1C(=O)OCC(=O)NC(=O)c1ccc(C(C)(C)C)cc1 (configuration not stated) | -6 | 4 | -3 | 0 | -3 | -13
Cc1nc2c(-c3ccccc3)c(C)nn2c(C)c1CCC(=O)NC(C)CCc1ccco1 (configuration not stated) | x | -3 | 2 | 3 | -10 | 4
c1ccc(-c2nc(NCCCn3ccnc3)c3oc4ccccc4c3n2)cc1 | -61 | 0 | u | -2 | -18 | 50 | Rad54 DNA ctr=-15%
CCc1nc(NCCCn2ccnc2)c2oc3ccccc3c2n1 | x | -2 | 0 | x | -3 | x
CCCCNC(C(=O)Nc1ccc(Cl)c([N+](=O)[O-])c1)c1ccccc1 (configuration not stated) | -38 | x | x | x | x | x
Cc1cccn2c(=O)c3cc(C(=O)NCc4ccccc4)c(=N)n(CCCN4CCOCC4)c3nc12 | 18 | -10 | 61* | -4 | 2 | 32 | Rad54 DNA ctr=-15%
CCCNc1nc2nc3ccccn3c(=O)c2cc1C(=O)NCCN1CCOCC1 | 11 | -3 | u | 1 | -27 | 39 | Rad54 DNA ctr=-12%
Cc1cccn2c(=O)c3cc(C(=O)NCCc4ccccc4)c(=N)n(CCCn4ccnc4)c3nc12 | x | -17 | 52* | x | -23 | x | Rad54 DNA ctr=-4%
COc1ccc(CCn2c(=N)c(C(=O)NCCN3CCOCC3)cc3c(=O)n4cccc(C)c4nc32)cc1OC | 0 | 0 | 77* | x | 2 | 37 | Rad54 DNA ctr=-4%
CC(CCc1ccccc1)NC(=O)[C@@H]1Cc2ccccc2CN1 (some centres not stated) | -10 | -5 | 3 | -3 | -7 | -3

2 records picked at random from the list so far, as already listed:
SMILES | INS-1E GSIS act | PglD inh | RAD54 inh | Casp6 inh | Yeast UUG start | RAD52 inh | others
CC(CCc1ccccc1)NC(=O)[C@@H]1Cc2ccccc2CN1 (some centres not stated) | -10 | -5 | 3 | -3 | -7 | -3
Cc1cccn2c(=O)c3cc(C(=O)NCCc4ccccc4)c(=N)n(CCCn4ccnc4)c3nc12 | x | -17 | 52* | x | -23 | x | Rad54 DNA ctr=-4%
